# Apparent affinities of Ab-14 variants for a coronavirus HR2 peptide

The measurements come from Engelhart et al. 2022 (doi:10.1038/s41597-022-01779-4) through the FLAb antibody collection.

The target is the same throughout: PDVDLGDISGINAS, from the HR2 region of SARS-CoV-2 spike.

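AAYL50 was designed without a model: most single CDR substitutions and a random sample of double and triple ones. AlphaSeq pools MATa yeast showing the antibodies with MATalpha yeast showing the peptide. Mating (16 h, 30 °C) was followed by selection of diploids and sequencing of their barcodes. Scores were corrected for input abundance and mapped to Kd with protein pairs of known affinity run in the same pool. Mating was done three times.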

Parent scFv Ab-14: VH joined to VL by a (GGGGS)3 linker. Changes lie in the light chain CDRs alone.
VH: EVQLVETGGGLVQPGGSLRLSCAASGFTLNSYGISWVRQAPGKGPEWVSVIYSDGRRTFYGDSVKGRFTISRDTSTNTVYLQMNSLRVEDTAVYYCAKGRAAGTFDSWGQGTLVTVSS
VL: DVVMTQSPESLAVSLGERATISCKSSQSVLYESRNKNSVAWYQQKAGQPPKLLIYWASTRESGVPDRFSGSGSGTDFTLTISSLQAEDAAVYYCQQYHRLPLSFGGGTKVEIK

Variants are written as CDR1, CDR2 and CDR3 of the light chain (limits as in the source). Parent: KSSQSVLYESRNKNSVA, WASTRES, QQYHRLPLS.
All variants listed here change Q96 of the VL, counted from its first residue.
The read-out is the apparent dissociation constant on a log10 scale (nM): the lower, the stronger.
Replicates are averaged; those with no signal do not enter the mean.
"nd" means that the variant was in the library but no mating with the target was seen in any replicate; the authors take this as a sign of poor binding, and no number exists.

For KSSQSVLYESRNKNSVA, WISTRES, QYYGRLPLS, the assay gave 3.32 (1 of 3 replicates; controls 1 of 9).
For KSSQSVLYFSRNKNSYA, WASTRES, QPYHRLPLS, the assay gave 4.04 (2 of 3 replicates; controls 0 of 9).
For KSSQSVLYESRNKNSVA, RASNRES, QYYHRLPLS, the assay gave 1.60 (3 of 3 replicates; controls 2 of 9).
For KSSQSVLYESRNKRSVA, WASTRES, YHYHRLPLS, the assay gave 2.64 (1 of 3 replicates; controls 0 of 9).
For KHSQSVLYESRNKNSVA, WAQTRES, QFYHRLPLS, the assay gave 1.46 (3 of 3 replicates; controls 0 of 9).
For KHSQSVLYESRNKNSVA, WASTRES, QKYHRLPLS, the assay gave 1.62 (3 of 3 replicates; controls 4 of 9).
For ESSQSVLYESRNKNSVA, WASTAES, QNYHRLPLS, the assay gave nd (0 of 3 replicates; controls 0 of 9).
For KSSQSVLYESRNKNSVA, GASTRES, SLYHRLPLS, the assay gave 0.54 (3 of 3 replicates; controls 4 of 9).
For KSSQSVLYTSRNKNSVA, WASTFES, QVYHRLPLS, the assay gave 3.28 (1 of 3 replicates; controls 4 of 9).
For KSSQSVLYESRNKNSVK, WASTRES, QWYHGLPLS, the assay gave nd (0 of 3 replicates; controls 2 of 9).
For KSSQSVLYESRNKNSVA, PASTRES, YAYHRLPLS, the assay gave 3.62 (1 of 3 replicates; controls 2 of 9).
For KSSQSVLYESRNKNSDA, WASTRES, QIYHRLPLS, the assay gave 3.77 (1 of 3 replicates; controls 0 of 9).
For KSSQSVLYESRNKKQVA, WASTRES, QRYHRLPLS, the assay gave 4.02 (1 of 3 replicates; controls 4 of 9).
For KSSQSVLYESRNKHSVA, WASTRES, QFYHRLPLS, the assay gave 2.05 (3 of 3 replicates; controls 1 of 9).
For KSSPSVLYESRNKNSVA, WASARES, QYYHRLPLS, the assay gave nd (0 of 3 replicates; controls 0 of 9).
For KSSQSVLYESRNKNSVA, WASTRES, QNYHRLPES, the assay gave 4.68 (1 of 3 replicates; controls 1 of 9).
For KSSQDVLYESRNKNSVA, WASTREN, QSYHRLPLS, the assay gave 1.28 (3 of 3 replicates; controls 2 of 9).
For KSSQSVMYESRNKNSVA, WASTRES, QVYHRLGLS, the assay gave 4.25 (2 of 3 replicates; controls 4 of 9).
For KSSQSVLYESRYKNSVA, WASTCES, QSYHRLPLS, the assay gave 4.22 (3 of 3 replicates; controls 4 of 9).
For KSSQSVLYESRNKNSVA, WASTREW, QNYHRLPRS, the assay gave 1.21 (3 of 3 replicates; controls 3 of 9).
For KSSVSVLYESRNKNSVA, WAITRES, QPYHRLPLS, the assay gave nd (0 of 3 replicates; controls 1 of 9).
For ISSQSVLYESRNMNSVA, WASTRES, QRYHRLPLS, the assay gave 4.27 (2 of 3 replicates; controls 2 of 9).
For WSSQSVLYESRNKNSVA, WAETRES, QEYHRLPLS, the assay gave 1.75 (3 of 3 replicates; controls 0 of 9).
For KSSQSVLYESRNKNSVA, WASTRES, QGYHLLPLD, the assay gave 2.63 (2 of 3 replicates; controls 0 of 9).
For KSSQSVLYESRNKNSVA, WASTRES, QVYHRLPLS, the assay gave 3.29 (2 of 3 replicates; controls 2 of 9).
For KSSQSVLYESRNKNSVA, WASTRES, QSYHRKELS, the assay gave nd (0 of 3 replicates; controls 0 of 9).
For KSSQSMLYESRNKNSVA, WVSTRES, QPYHRLPLS, the assay gave nd (0 of 3 replicates; controls 0 of 9).
For KSSQSVLYESRNKNSVA, WASTRLS, QAYHCLPLS, the assay gave 3.07 (1 of 3 replicates; controls 1 of 9).
For GSSQSVLYESRNKTSVA, WASTRES, QEYHRLPLS, the assay gave 4.49 (3 of 3 replicates; controls 2 of 9).
For KLSQSVLYESRNKNSVC, WASTRES, QEYHRLPLS, the assay gave 2.41 (3 of 3 replicates; controls 2 of 9).
For KSSQSVLYESRNKNAVA, WARTRES, QDYHRLPLS, the assay gave 1.35 (3 of 3 replicates; controls 3 of 9).
For KSSQSVLYASRNKFSVA, WASTRES, QVYHRLPLS, the assay gave 4.46 (1 of 3 replicates; controls 0 of 9).
For KSSQSVLYESRNYNSVA, WASTRES, QRYHRLALS, the assay gave 0.83 (3 of 3 replicates; controls 3 of 9).
For KSSQSVLYESRMKNSVA, WASTRES, QHYHRLPYS, the assay gave 0.94 (3 of 3 replicates; controls 0 of 9).
For DSSQSVLYESRNKNSVA, WASTRES, QHYHRLPLS, the assay gave 2.22 (3 of 3 replicates; controls 2 of 9).
For KSRQSVLYESRNKNSVA, WASTRES, QAYHRLPLS, the assay gave 2.84 (1 of 3 replicates; controls 0 of 9).
For KSSQSVLYEVRNKNSVA, WRSTRES, QWYHRLPLS, the assay gave 3.44 (1 of 3 replicates; controls 1 of 9).
For GSSQSVLPESRNKNSVA, WASTRES, QRYHRLPLS, the assay gave 1.41 (3 of 3 replicates; controls 8 of 9).
For KSSQSVLYESRNKNSVA, WASTRES, QSYIRLPIS, the assay gave 3.18 (3 of 3 replicates; controls 0 of 9).
For KSSQSVLYESRNKNSVA, WASTRES, QIYHRLRLS, the assay gave nd (0 of 3 replicates; controls 0 of 9).
For KSEQSVLYESRNKNSVA, WASTRES, QAYHHLPLS, the assay gave nd (0 of 3 replicates; controls 2 of 9).
For KSSQSVLYESRNKNSVA, WASTRES, QGEHRLPLS, the assay gave 3.44 (3 of 3 replicates; controls 0 of 9).
For KSSRSVLYESRNKNSVA, WASTRES, ICYHRLPLS, the assay gave nd (0 of 3 replicates; controls 1 of 9).
For KSSQSVLYESRNANSVA, WASTRES, QHYHRLPLS, the assay gave 1.68 (3 of 3 replicates; controls 1 of 9).

4 of these entries, quoted again:

| CDR-L1 | CDR-L2 | CDR-L3 | log10 Kd (nM), mean | replicates with signal | signal with controls |
|---|---|---|---|---|---|
| KSSQSVLYESRNKNSVA | WISTRES | QYYGRLPLS | 3.32 | 1/3 | 1/9 |
| KSSQSVLYESRNKNAVA | WARTRES | QDYHRLPLS | 1.35 | 3/3 | 3/9 |
| KSSQSVLYESRNKNSVA | WASTRLS | QAYHCLPLS | 3.07 | 1/3 | 1/9 |
| KSSQSVLYESRNKRSVA | WASTRES | YHYHRLPLS | 2.64 | 1/3 | 0/9 |

Nonspecific signal, from three strains lacking the peptide, appeared in 18% of pairings of library AAYL50, centred on 4.19 (5% of these signals below 2.99); values are not corrected for it. For each scFv, signals with the empty controls are counted beside the result.
Parent in this assay: reference entry 0.65, copy in this library 1.68.